Results as given in ChEMBL document CHEMBL6083240, “Design, synthesis and biological evaluation of arylpropylamine derivatives as potential multi-target antidepressants” (Bioorg Med Chem, 2024).

Sequences of proteins named here, by UniProt entry; tags and fusion partners are left off.
UniProt Q63380, whole entry: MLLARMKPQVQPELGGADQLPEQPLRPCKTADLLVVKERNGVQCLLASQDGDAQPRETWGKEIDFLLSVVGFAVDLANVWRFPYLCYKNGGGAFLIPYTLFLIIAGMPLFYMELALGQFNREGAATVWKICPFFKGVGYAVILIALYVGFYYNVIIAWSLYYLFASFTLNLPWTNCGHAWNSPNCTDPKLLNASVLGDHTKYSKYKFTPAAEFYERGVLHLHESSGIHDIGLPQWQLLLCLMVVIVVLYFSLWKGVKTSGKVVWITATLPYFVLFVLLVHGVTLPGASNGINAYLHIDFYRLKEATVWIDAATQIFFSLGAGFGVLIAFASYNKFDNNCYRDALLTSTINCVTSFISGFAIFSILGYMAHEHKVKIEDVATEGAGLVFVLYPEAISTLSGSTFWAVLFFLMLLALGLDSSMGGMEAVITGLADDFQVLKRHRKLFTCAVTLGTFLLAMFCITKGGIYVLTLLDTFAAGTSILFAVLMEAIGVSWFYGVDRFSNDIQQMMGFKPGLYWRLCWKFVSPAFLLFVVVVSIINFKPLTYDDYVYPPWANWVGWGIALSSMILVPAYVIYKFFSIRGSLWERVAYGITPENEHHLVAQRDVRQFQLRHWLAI

Biological target: Transporter (Rattus norvegicus, UniProt Q63380)
Experiment: Antagonist activity at rat cerebral cortex membrane NET incubated for 10 mins in presence of [3H]-NE
Format: cell membranes

IC50: 35.8 nM
SMILES: CNCCC(Oc1ccccc1OC)c1ccccc1 (stereo unspecified) [NISOXETINE]
